System: PADI4
Experiment: in vitro citrullination (deimination) assay of HP1γ
Assay type: biochemical, human
Details: 100 ng peptide; GST-HP1γWT substrate; with calcium; n = 3, p value: 0.004
Description: For immunoblotting, cells were lysed in 2 × Laemmli buffer and sonicated in a water bath (Fisherbrand) for 3 min to shear genomic DNA, spun down at full speed in a microfuge for 15 min and incubated for 5 min at 95 °C. Proteins were resolved by SDS-PAGE, transferred to nitrocellulose membrane (Millipore) using wet transfer (transfer buffer: 192 mM glycine, 25 mM Tris.HCl pH8.8) and incubated in blocking solution (5% BSA in TBS containing 0.5% Tween-20 for citrulline sensitive antibodies and 5% non-fat milk powder in TBS containing 0.1% Tween-20 for all other antibodies) for 1 h at room temperature (RT). Membranes were incubated with primary antibody at 4 °C o/n and appropriate HRP-conjugated secondary antibody for 1 h at RT. Membranes were then incubated for enhanced chemiluminescence (ECL, Promega), and proteins were detected by exposure to X-ray film or using the ChemiDoc™ MP imaging system (Bio-Rad). Images were quantified using ImageJ analysis software. Primary antibodies diluted in blocking solution were used to detect citrullinated histone H3R2 (H3R2-Cit, Abcam ab176843 at 1:1000 dilution), HP1γ (Millipore 05-690 MAB clone 42s2 [16] at 1:1000 dilution), β-Tubulin (Abcam ab6046 at 1:1000 dilution) and peptidyl-citrulline (Millipore MABN328, clone F95 [48] at 1:1000 dilution). […]

NH2-ARTKQTARK(me3)STGGKAP-Biotin (ARTKQTARKSTGGKAP; trimethyl-lysine at K9 (K(me3)); biotin at the C-terminus) [H3K9me3(1–16), trimethylated H3K9 peptide, residues 1–16, reference compound]
increase of HP1γ citrullination by PADI4 (fold): approximately twofold

Source: PMC6444592, “Citrullination of HP1γ chromodomain affects association with chromatin” (Epigenetics & Chromatin, 2019)
